Laboratory results from patent US10781456B2, “Carbon-neutral and carbon-positive photorespiration bypass routes supporting higher photosynthetic rate and yield” (Max-Planck-Gesellschaft zur Förderung der Wissenschaften …, priority 2015, dated 2020).

Target: T1, propionyl-CoA transferase from Clostridium propionicum (PCTCp), wild type, SEQ ID NO: 14 (Anaerotignum propionicum, UniProt Q9L3F7)
T1 sequence (Q9L3F7 with tags, fused parts or gaps): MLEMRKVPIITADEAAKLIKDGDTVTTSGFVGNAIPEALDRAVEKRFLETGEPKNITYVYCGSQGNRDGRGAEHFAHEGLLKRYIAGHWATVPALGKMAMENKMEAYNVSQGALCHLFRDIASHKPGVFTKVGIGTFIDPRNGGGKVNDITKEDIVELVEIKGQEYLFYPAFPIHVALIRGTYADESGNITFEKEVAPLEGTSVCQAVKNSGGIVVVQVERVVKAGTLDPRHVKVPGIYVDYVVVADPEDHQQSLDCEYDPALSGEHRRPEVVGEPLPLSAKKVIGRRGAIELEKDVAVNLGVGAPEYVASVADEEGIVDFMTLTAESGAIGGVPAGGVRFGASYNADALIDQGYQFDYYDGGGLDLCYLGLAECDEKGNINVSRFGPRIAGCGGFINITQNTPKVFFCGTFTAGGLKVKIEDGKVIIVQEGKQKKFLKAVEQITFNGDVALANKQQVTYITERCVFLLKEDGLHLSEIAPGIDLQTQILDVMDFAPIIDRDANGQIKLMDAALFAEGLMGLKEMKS
Conditions: 37° C., pH 7.5, 2 mM acetyl-CoA; n=1 (preliminary result)

O=C(O)CO [glycolate]
vmax: 31.6±2.7 mU mg^−1
